Data as given in patent US11421026B2, “Antibodies that bind human cannabinoid 1 (CB1) receptor” (BIRD ROCK BIO, Inc., priority 2015, dated 2022).

System: CB1 receptor signaling, WIN55,212 induced ERK phosphorylation in Trex-CHO CB1 receptor cells
Experiment: ERK activation assay (western blot)
Format: cell-based, human
Conditions: IgG 300 nM; WIN55,212 100 nM, 10 and 15 minutes

Cc1c(C(=O)NN2CCCCC2)nn(-c2ccc(Cl)cc2Cl)c1-c1ccc(Cl)cc1 [Rimonabant, reference compound]
block of WIN55,212 induced ERK phosphorylation: inhibited
